# Results taken from PubChem BioAssay AID504891 (National Center for Advancing Translational Sciences (NCATS), 2011).
# Chains of the proteins cited; added tags and fusions are not shown.
# UniProt Q13526, whole entry, looked up: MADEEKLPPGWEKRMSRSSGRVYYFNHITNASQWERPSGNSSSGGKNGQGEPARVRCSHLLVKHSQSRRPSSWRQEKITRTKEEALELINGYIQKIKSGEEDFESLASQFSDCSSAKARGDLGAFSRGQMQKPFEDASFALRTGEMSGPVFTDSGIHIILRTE
# This is a selection; strong and weak results do not stand in their true shares. Inconclusive results are not listed. Activity calls are given as the source filed them. Calls follow the shape of the dose curve; as a rule, active = well fitted inhibition curve with a large enough effect in the polarisation, with a control signal flat (not every such curve was filed as active); inconclusive = small, poorly fitted or top-dose-only effect, or effect the other way, or a change in a side signal; inactive = no such curve, though single readings can be large or run the other way; the % refers to the polarisation.
# Biological target: Peptidyl-prolyl cis-trans isomerase NIMA-interacting 1 (Homo sapiens) (UniProt Q13526)
# Test: qHTS Assay to Find Inhibitors of Pin1
# Conditions: Pin1 FP peptide displacement, HiFluor488, 10 min; at 115 µM (top of the series)
# % is scaled to controls: 0 for no effect and ±100 for the full control effect.
row,SMILES,"activity, negative = inhibition"
1,CCC(=O)N1C2C3N(C(=O)CC)C1C1N(C(=O)CC)C(C(N1C(=O)CC)N3C(=O)CC)N2C(=O)CC,inactive: 0.891%
2,COC(=O)c1cc2c(s1)N=C(c1ccccc1)N(C)P2(=O)N1CCOCC1 (stereo unspecified),inactive: 5.24%
3,CC(=O)NC(SC(=S)N(CC(C)C)CC(C)C)C(Cl)(Cl)Cl (stereo unspecified),inactive: -1.13%
4,Cc1ccc(OP(=O)(Nc2ccccn2)Oc2ccc(C)cc2)cc1,inactive: -0.0876%
5,O=P1(N(CCCl)CCCl)OCCC2CCCCN21 (stereo unspecified),inactive: -8.64%
6,c1ccc(-c2nn[nH]n2)c(-c2nn[nH]n2)c1,inactive: -7.3%
7,Cc1ccc(NP(=O)(Oc2cccc(C)c2)Oc2cccc(C)c2)nc1,inactive: -1.53%
8,O=C(NC1CCS(=O)(=O)C1)NP(=S)(Oc1ccccc1)Oc1ccccc1 (stereo unspecified),inactive: 6.85%
9,CCNC(=S)/N=C(\N)N[N+](=O)[O-],inactive: -1.17%
10,CC(=O)Nc1ccc([As](=O)(O)O)c(O)c1,inactive: -10.3%
11,CC(=O)Nc1ccc(Oc2c([N+](=O)[O-])cc([N+](=O)[O-])cc2[N+](=O)[O-])cc1,inactive: -5.63%
12,C[C@H]1OP(=O)(Oc2ccccc2)C[C@@H]2O[C@@H]21 (stereo partly specified),inactive: -1.49%
13,C[C@@H]1C=CCP(=O)(Oc2ccccc2)O1 (stereo partly specified),inactive: 1.89%
14,N#C/C(=C\c1ccc(N(CCBr)CCBr)cc1)C(N)=O,inactive: 25.5%
15,COC(=O)C1(C)COP(=O)(NCc2ccccc2)OC1 (stereo unspecified),inactive: -7.82%
16,CC(C)(C)C(=O)NC(Sc1ccccc1)C(Cl)(Cl)Cl (stereo unspecified),inactive: 7.22%
17,CCc1cc(O)c([N+](=O)[O-])c(C)c1[N+](=O)[O-],inactive: -0.718%
18,CCOc1ccc(C2=NCC(CBr)S2)cc1 (stereo unspecified),inactive: 0.221%
19,Oc1ccccc1CNc1ccccn1,inactive: 1.86%

row,SMILES,"activity, negative = inhibition"
1,O=C(NC(Sc1ccncn1)C(Cl)(Cl)Cl)c1ccccc1 (stereo unspecified),inactive: -0.432%
2,Nc1cc(N)c2nonc2c1[N+](=O)[O-],inactive: 1.22%
3,CC(C)CC(=O)NC(Sc1ccc(Cl)cc1)C(Cl)(Cl)Cl (stereo unspecified),inactive: 1.67%
4,CN1CCCC(OC(=O)C(c2ccccc2)c2ccccc2)C1 (stereo unspecified),inactive: -1.93%
5,Clc1ccc(Cl)c(NC2=NCC(CBr)S2)c1 (stereo unspecified),inactive: 2.8%
6,COc1ccccc1OP(=O)(Nc1ccc(C)cn1)Oc1ccccc1OC,inactive: -10.3%
7,Cc1ccc(OP(=O)(Nc2nccs2)Oc2ccc(C)cc2)cc1,inactive: 8.41%
8,CN(C(=O)Cc1ccc(Cl)c(Cl)c1)[C@H]1CCCC[C@H]1N1CCCC1,inactive: -0.0291%
9,Cc1ccc(N/C(=N/P(=O)(N2CCOCC2)N2CCOCC2)N2CCOCC2)cc1,inactive: -10.6%
10,NC(=O)c1cc([N+](=O)[O-])cc([N+](=O)[O-])c1N,inactive: -6.19%
11,CCN(N=Nc1nonc1N)c1nonc1N,inactive: -0.992%
12,Cc1cc(SC(NC(=O)c2ccc(F)cc2)C(Cl)(Cl)Cl)ncn1 (stereo unspecified),inactive: -0.414%
13,CCOP(=O)(Nc1ccccc1)OCC,inactive: -5.71%
14,CN(C(=O)Cc1ccc(Cl)c(Cl)c1)[C@H]1CCCC[C@@H]1N1CCCC1,inactive: -7.49%
15,Cc1ccc(NP(=O)(Oc2ccccc2F)Oc2ccccc2F)nc1,inactive: -5.65%
16,O=P(Nc1nc2ccc(Cl)cc2s1)(c1ccccc1)c1ccccc1,inactive: 18.8%
17,CC(=O)Nc1ccc([As](=O)(O)O)cc1,inactive: -0.683%
18,O=C(O)c1ccccc1[As](=O)(O)O,inactive: 0.892%
19,CCCC1OP(N)(=O)OCC1CC (stereo unspecified),inactive: -4.2%

row,SMILES,"activity, negative = inhibition"
1,O=C(O)CNc1ccc([As](=O)(O)O)cc1,inactive: 9.19%
2,COC(=O)C1(C)COP(=O)(Nc2ccccc2)OC1 (stereo unspecified),inactive: -0.273%
3,O=[N+]([O-])c1cccc(NC2=NCC(CBr)S2)c1 (stereo unspecified),inactive: -6.33%
4,CC(C)(C)C(=O)NC(Sc1ccncn1)C(Cl)(Cl)Cl (stereo unspecified),inactive: 0.125%
5,O=P(/N=c1/nc(-c2ccccc2)n(-c2ccccc2)s1)(Nc1ccccc1)Nc1ccccc1,inactive: -2.24%
6,O=C(Nc1cc([As](=O)(O)O)ccc1O)c1ccccc1,inactive: -1.9%
7,O=P1(N(CCCl)CCCl)OCCCS1 (stereo unspecified),inactive: -1.88%
8,CC1CCN(C(=O)Oc2c(Cl)cc(Cl)c3cccnc23)CC1,inactive: -0.892%
9,CC(C)=N/N=C(\N)N[N+](=O)[O-],inactive: -1.64%
10,CN(C)C(=O)OCCc1n(C)cc[n+]1C,inactive: -5.68%
11,CCN(/C(=N/P(=O)(N1CCOCC1)N1CCOCC1)N1CCOCC1)c1ccc(OC)cc1,inactive: 2.9%
12,Nc1ccc([As](=O)(O)c2ccc(N)cc2)cc1,inactive: -7.7%
13,Cc1ccc(NP(=O)(Oc2ccccc2)Oc2ccccc2)nc1,inactive: -5.07%
14,O=[N+]([O-])c1cc([N+](=O)[O-])c(CCNc2ccccc2)c([N+](=O)[O-])c1,inactive: 0.146%
15,CCc1nc2c(n1)c1c(non1O)c1c2no[n+]1[O-],inactive: -11.1%
16,CC(=O)N1C2C3N(C(C)=O)C1C1N(C(C)=O)C(C(N1C(C)=O)N3C(C)=O)N2C(C)=O,inactive: 2.43%
17,O=[N+]([O-])c1cccc2n[nH]nc12,inactive: 0.57%
18,COc1ccc(C2=NCC(CBr)S2)cc1 (stereo unspecified),inactive: 1.07%
